Ab-91 heavy chain CDR variants: yeast mating affinities

Values reported by Engelhart et al. 2022, doi:10.1038/s41597-022-01779-4 (FLAb copy).

Target peptide (SARS-CoV-2 spike, HR2 region): PDVDLGDISGINAS

The variants keep the light chain, the linker and the frameworks of Ab-91 (scFv order VL, the linker GGGGSGGGGSGGGGS, VH).
VL: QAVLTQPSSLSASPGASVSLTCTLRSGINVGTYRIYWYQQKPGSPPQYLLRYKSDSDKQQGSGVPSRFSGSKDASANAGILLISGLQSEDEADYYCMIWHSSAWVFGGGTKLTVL
VH: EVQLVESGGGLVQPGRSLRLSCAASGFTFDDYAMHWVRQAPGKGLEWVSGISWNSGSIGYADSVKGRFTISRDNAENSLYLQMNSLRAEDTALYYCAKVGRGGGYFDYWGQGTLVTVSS

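Phage display of a naive human antibody library on the peptide gave the parent. Library AAYL51 holds single substitutions and randomly drawn double and triple substitutions in the CDRs. Affinity was read by AlphaSeq, a pooled yeast mating assay with surface-displayed partners. The frequency of each diploid, read from paired DNA barcodes, reflects how well the two displayed proteins bind. A regression on co-assayed BCL2-family reference pairs converts the normalised counts of each replicate to an apparent Kd. Each pool was mated in three replicate cultures.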

The parent's heavy chain CDRs are GFTFDDYAMH, GISWNSGSIGYADSVK, VGRGGGYFDY; each variant's own CDRs replace them letter for letter.
This list gathers variants with a substitution at K65 (VH, numbered from residue 1).
Each Kd is an estimate from the mating assay, the geometric mean of the replicates in which the pair was seen; lower is stronger.
An entry "no signal" has no value in the source: the pair was not observed among the diploids in any replicate. This suggests poor binding but is not conclusive.
For reference, the parent read 72 nM as the reference entry and 7.5 nM as a member of this library.

| CDR-H1 | CDR-H2 | CDR-H3 | Kd (apparent) | seen in | control signals |
|---|---|---|---|---|---|
| KFTFDDYAMH | GISWNSGSIGYADSVL | KGRGGGYFDY | 86 µM | 1/3 | 1/9 |
| GFTFSDYAMH | GISWNSGSIGYADSMS | VGRGGGYFDY | 4.8 nM | 3/3 | 7/9 |
| GFTFDDYAMH | GISWNSGPIGYADSVN | VGRGGGHFDY | 88 µM | 2/3 | 5/9 |
| GFTFDDYFMH | GISWNSGSIEYADSVP | VGRGGGYFDY | 64 µM | 1/3 | 1/9 |
| GFTFDDHAMH | GGSWNSGSIGYADSVA | VGRGGGYFDY | no signal | 0/3 | 0/9 |
| GFTFIDYAMH | GISWNSGSIGYAMSVV | VGRGGGYFDY | 460 µM | 1/3 | 4/9 |
| GFTFDDYALH | GISWNSGSIGYADSVQ | VGREGGYFDY | 230 µM | 1/3 | 4/9 |
| GFTHDDYAMH | GISWNHGSIGYADSVP | VGRGGGYFDY | 1.7 mM | 1/3 | 5/9 |
| GFTFDDYAMH | GISWNSYHIGYADSVN | VGRGGGYFDY | 480 nM | 3/3 | 1/9 |
| GFTFDDYAMH | GISWNSGSIGYADSPR | VMRGGGYFDY | 130 µM | 3/3 | 3/9 |
| GFTFDDYAKH | GISWRSGSIGYADSVS | VGRGGGYFDY | no signal | 0/3 | 2/9 |
| GFTFDDCAMH | GISWNSGSIGYADSVV | VGRGGGYFDY | 11 µM | 2/3 | 3/9 |
| KFTFDDYAMH | GIWWNSGSIGYADSVE | VGRGGGYFDY | 410 µM | 2/3 | 4/9 |
| GFTFDDYAMH | GISWNSGSINYADSVQ | VGRGGGYFDE | 130 µM | 1/3 | 3/9 |
| GFTFKDYAMH | GISWNSGSIGYADSVH | VGRGGGYFIY | 200 µM | 3/3 | 5/9 |
| GFTFDDYAMH | GISWNSGSIFYKDSVW | VGRGGGYFDY | 31 µM | 1/3 | 2/9 |
| GFTFDDYAMH | GISWNSGSIGYASSVQ | VFRGGGYFDY | no signal | 0/3 | 0/9 |
| GFTFDDYAMH | GIPWNVGSIGYADSVL | VGRGGGYFDY | no signal | 0/3 | 2/9 |
| GFTWDDYAMH | GISWNSGSIGYADSVE | VGRGGGYFDY | 780 µM | 1/3 | 2/9 |
| GFTFDDYAMH | GISWNSGSIGYADSVA | VGRGGGHFDY | 470 µM | 2/3 | 7/9 |
| GFTFDDYASM | GISWNSGSIGYADSVF | VGRGGGYFDY | 15 µM | 1/3 | 3/9 |
| GFTFDDYAMH | GISWNSGSIGYADSVE | FGRGGGYFVY | 2.6 µM | 1/3 | 0/9 |
| GFTFWDYAMH | GISWNGGSIGYADSVG | VGRGGGYFDY | no signal | 0/3 | 0/9 |
| GFTCDDYAMH | GISWNSGSIGYADSVY | VGRGGPYFDY | no signal | 0/3 | 0/9 |
| GFTFDDNAMH | GISWNSGSIGYADSVF | VGRSGGYFDY | 15 µM | 1/3 | 3/9 |
| GFTFDDGAMH | GISWNSGSIGYADRVE | VGRGGGYFDY | 4.8 nM | 3/3 | 1/9 |
| GFVFDDYAMH | GISWNSGSIGYADSVH | VGRGGCYFDY | 4.0 nM | 3/3 | 3/9 |
| GFTFDDYAMH | GISWNSGSIGYADSVY | VGRKGEYFDY | 2.3 µM | 1/3 | 2/9 |
| GFTFDDYAMH | GASWNSGSIGYADSVL | VGRGGGYFDV | 170 nM | 3/3 | 0/9 |
| GFSFDDYAMH | GIFWNSGSIGYADSVY | VGRGGGYFDY | 88 µM | 2/3 | 4/9 |
| HFTFDDYAMH | GISWNSGSIGYADSVM | VGRGGGYGDY | 19 µM | 2/3 | 1/9 |
| SFTFDDYAMH | GISWNSGSIGYADSVW | VGRGGGYFDC | no signal | 0/3 | 1/9 |
| GFTFDDYAMH | GISWNSGSIGYADSVS | VGRGGGYFDY | 7.8 nM | 3/3 | 3/9 |
| GFTFDDWAMH | GISPNSGSIGYADSVY | VGRGGGYFDY | 190 nM | 3/3 | 1/9 |
| GFTFCDYAMH | GISWNSGSIGYADSVN | VGRGGTYFDY | 71 µM | 1/3 | 2/9 |
| GFTFDDYAMH | GISWNSGSIGYADSVW | VGGGGGYFDW | 130 µM | 3/3 | 5/9 |
| GFTFDDKAMH | GISWNSGSIGYAWSVL | VGRGGGYFDY | 29 µM | 1/3 | 1/9 |
| GFTFDDYAMH | GISWNSGSIGYATAVW | VGRGGGYFDY | 7.4 µM | 1/3 | 1/9 |
| GFTFDDYAMH | GISWNSGSIGYADRVQ | VGRGGGPFDY | 14 nM | 3/3 | 4/9 |
| GFTFDDYAMH | GISWNSGSIGYADSVV | VWRGGGYFEY | 820 nM | 3/3 | 3/9 |
| GFTFDDYAMH | IISWNSGSIHYADSVT | VGRGGGYFDY | 31 µM | 1/3 | 3/9 |
| GFTFDDYAMH | GISWNSGSIGYADSVG | VGEGKGYFDY | 8.1 µM | 2/3 | 4/9 |
| GFTFLDYAQH | GISWNSGSIGYADSVE | VGRGGGYFDY | no signal | 0/3 | 0/9 |
| GFTFDDYAMH | GISWNSGSIHYADSVY | VGRGGGSFDY | 35 µM | 2/3 | 2/9 |
| GFTFDDYAMH | GISWKSGSIWYADSVN | VGRGGGYFDY | no signal | 0/3 | 0/9 |
| GFTFDDYAMS | GISWNSGSIGYADSVR | VGRGGGYNDY | 98 µM | 2/3 | 5/9 |
| DFTFDVYAMH | GISWNSGSIGYADSVE | VGRGGGYFDY | no signal | 0/3 | 2/9 |
| GFTFDDYAMH | NISSNSGSIGYADSVG | VGRGGGYFDY | no signal | 0/3 | 0/9 |
| GITFDDYAMH | GISWNSGSIGYADSVG | VGRGGSYFDY | no signal | 0/3 | 0/9 |
| GATFDDYAMH | GISWNTGSIGYADSVE | VGRGGGYFDY | 70 µM | 3/3 | 9/9 |
| GFTFDDYAMH | GISWNSGSIGAADSVS | VGRYGGYFDY | 80 µM | 1/3 | 4/9 |
| GFTFDDYSMH | GISVNSGSIGYADSVG | VGRGGGYFDY | 2.4 µM | 1/3 | 1/9 |
| GFTFDDYAMH | GISWNSGSIGYADSVW | VGRGGGYFDR | 23 nM | 3/3 | 4/9 |
| GFTFDDYAMH | GISWNSGSIGYLDSVR | VGCGGGYFDY | 1.7 µM | 1/3 | 0/9 |
| FFTFDDYAMH | FISWNSGSIGYADSVR | VGRGGGYFDY | no signal | 0/3 | 0/9 |
| GFTFDDYAMG | GISWNSGSTGYADSVT | VGRGGGYFDY | 23 µM | 3/3 | 6/9 |

Again, the first 4 entries without any signal:

| CDR-H1 | CDR-H2 | CDR-H3 | Kd (apparent) | seen in | control signals |
|---|---|---|---|---|---|
| GFTFDDHAMH | GGSWNSGSIGYADSVA | VGRGGGYFDY | no signal | 0/3 | 0/9 |
| GFTFDDYAKH | GISWRSGSIGYADSVS | VGRGGGYFDY | no signal | 0/3 | 2/9 |
| GFTFDDYAMH | GISWNSGSIGYASSVQ | VFRGGGYFDY | no signal | 0/3 | 0/9 |
| GFTFDDYAMH | GIPWNVGSIGYADSVL | VGRGGGYFDY | no signal | 0/3 | 2/9 |

Background: pairings of library AAYL51 with three empty control strains gave a value in 21% of cases (median 34 µM, 5th percentile 1.8 µM). Values in that range, when seen in few replicates, are hard to tell from nonspecific mating. For each scFv, signals with the empty controls are counted beside the result.